Reference: ChEMBL document CHEMBL1131013, “Synthesis and evaluation of analogues of the partial agonist 6-(propyloxy)-4-(methoxymethyl)-beta-carboline-3-carboxylic acid ethyl ester (6-PBC) and the full agonist 6-(benzyloxy)-4-(methoxymethyl)-beta-carboline-3-carboxylic acid ethyl ester (Zk 93423) at wild type and recombinant GABAA receptors” (J Med Chem, 1998)

By UniProt entry, the sequences of proteins in these tests, tags left out.
UniProt Q16445, whole entry: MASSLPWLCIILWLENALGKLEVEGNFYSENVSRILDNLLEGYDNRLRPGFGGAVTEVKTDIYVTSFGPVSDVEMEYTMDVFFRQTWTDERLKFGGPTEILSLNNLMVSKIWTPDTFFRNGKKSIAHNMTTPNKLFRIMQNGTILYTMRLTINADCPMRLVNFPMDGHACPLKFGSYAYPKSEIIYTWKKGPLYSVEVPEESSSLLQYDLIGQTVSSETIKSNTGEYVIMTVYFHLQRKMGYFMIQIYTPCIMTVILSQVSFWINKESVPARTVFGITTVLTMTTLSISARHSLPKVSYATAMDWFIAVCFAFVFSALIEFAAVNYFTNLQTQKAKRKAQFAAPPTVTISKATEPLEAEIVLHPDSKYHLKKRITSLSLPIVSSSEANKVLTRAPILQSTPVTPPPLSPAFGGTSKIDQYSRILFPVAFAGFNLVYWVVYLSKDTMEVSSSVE

How the values were obtained:
[1] = target: GABA-A receptor; alpha-6/beta-3/gamma-2 (Homo sapiens, UniProt P18507+P28472+Q16445); assay: Binding affinity measured using LtK- cell membranes expressing Gamma-aminobutyric acid A receptor alpha-6-beta-3-gamma-2
Procedure, shortened: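 Ltk- cells expressing human α6β3γ2, scraped into PBS and resuspended in 10 mM KH2PO4/100 mM KCl pH 7.4. 1 h at 4 °C to equilibrium, filtration, scintillation counting.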

[2] = target: T1, GABA-A receptor; alpha-5/beta-3/gamma-2 (Homo sapiens, UniProt P18507+P28472+P31644); assay: Binding affinity measured using LtK- cell membranes expressing Gamma-aminobutyric acid A receptor alpha-5-beta-3-gamma-2
T1 sequence (P18507 whole entry): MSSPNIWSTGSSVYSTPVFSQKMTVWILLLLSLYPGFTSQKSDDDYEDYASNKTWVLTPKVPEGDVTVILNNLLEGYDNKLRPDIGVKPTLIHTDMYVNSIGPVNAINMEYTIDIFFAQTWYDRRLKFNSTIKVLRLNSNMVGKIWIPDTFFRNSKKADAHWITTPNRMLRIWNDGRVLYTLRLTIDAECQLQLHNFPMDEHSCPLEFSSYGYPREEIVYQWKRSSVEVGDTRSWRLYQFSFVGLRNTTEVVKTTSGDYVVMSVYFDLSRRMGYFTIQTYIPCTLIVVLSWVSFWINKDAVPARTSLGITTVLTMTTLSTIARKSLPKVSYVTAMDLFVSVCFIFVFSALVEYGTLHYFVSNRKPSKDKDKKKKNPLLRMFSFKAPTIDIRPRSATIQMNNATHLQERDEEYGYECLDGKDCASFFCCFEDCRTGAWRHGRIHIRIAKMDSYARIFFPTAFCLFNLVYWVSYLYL
T1 sequence (P28472 whole entry): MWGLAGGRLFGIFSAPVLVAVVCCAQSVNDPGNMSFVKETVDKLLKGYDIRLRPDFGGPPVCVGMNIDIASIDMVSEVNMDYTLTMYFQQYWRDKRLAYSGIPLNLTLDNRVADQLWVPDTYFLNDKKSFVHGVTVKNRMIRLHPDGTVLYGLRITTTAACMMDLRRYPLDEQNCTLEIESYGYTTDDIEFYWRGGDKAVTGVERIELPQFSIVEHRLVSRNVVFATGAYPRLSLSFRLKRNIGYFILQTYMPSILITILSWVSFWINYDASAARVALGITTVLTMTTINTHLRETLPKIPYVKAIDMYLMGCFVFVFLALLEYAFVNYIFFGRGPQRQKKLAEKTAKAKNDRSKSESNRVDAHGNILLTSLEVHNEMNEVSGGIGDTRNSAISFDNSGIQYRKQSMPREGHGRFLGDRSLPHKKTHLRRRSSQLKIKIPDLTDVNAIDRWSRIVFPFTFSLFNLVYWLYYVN
T1 sequence (P31644 whole entry): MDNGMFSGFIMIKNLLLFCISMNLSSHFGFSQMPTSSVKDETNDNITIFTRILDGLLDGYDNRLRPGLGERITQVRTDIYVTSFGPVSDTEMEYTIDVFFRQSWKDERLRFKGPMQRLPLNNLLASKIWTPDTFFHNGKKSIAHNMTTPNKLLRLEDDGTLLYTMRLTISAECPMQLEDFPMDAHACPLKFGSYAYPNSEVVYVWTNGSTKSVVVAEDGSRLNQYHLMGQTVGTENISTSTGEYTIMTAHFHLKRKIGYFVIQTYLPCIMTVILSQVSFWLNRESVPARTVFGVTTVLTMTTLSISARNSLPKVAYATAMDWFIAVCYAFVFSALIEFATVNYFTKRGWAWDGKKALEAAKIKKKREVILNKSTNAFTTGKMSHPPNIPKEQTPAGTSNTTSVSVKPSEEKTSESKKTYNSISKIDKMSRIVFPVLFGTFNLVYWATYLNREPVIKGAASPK

[3] = target: T2, GABA-A receptor; alpha-3/beta-3/gamma-2 (Homo sapiens, UniProt P18507+P28472+P34903); assay: Binding affinity measured using LtK- cell membranes expressing GABA alpha-3-beta-3-gamma-2 receptor
T2 sequence (P18507 whole entry): T1 sequence (P18507 whole entry)
T2 sequence (P28472 whole entry): T1 sequence (P28472 whole entry)
T2 sequence (P34903 whole entry): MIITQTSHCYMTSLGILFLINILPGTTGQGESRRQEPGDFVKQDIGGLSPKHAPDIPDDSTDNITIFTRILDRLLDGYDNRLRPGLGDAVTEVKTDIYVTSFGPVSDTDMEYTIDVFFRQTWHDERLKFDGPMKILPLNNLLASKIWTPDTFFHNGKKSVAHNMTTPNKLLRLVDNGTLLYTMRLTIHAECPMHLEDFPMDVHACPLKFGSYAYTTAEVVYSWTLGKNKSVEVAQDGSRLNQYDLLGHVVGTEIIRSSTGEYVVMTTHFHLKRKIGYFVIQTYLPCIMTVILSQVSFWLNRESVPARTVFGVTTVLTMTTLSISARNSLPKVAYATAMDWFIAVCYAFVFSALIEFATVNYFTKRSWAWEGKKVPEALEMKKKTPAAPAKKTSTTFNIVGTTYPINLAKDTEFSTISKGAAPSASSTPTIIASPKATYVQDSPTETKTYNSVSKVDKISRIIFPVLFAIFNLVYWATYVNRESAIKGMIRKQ

[4] = target: T3, GABA-A receptor; alpha-2/beta-3/gamma-2 (Homo sapiens, UniProt P18507+P28472+P47869); assay: Binding affinity measured using LtK- cell membranes expressing GABA alpha-2-beta-3-gamma-2 receptor
T3 sequence (P18507 whole entry): T1 sequence (P18507 whole entry)
T3 sequence (P28472 whole entry): T1 sequence (P28472 whole entry)
T3 sequence (P47869 whole entry): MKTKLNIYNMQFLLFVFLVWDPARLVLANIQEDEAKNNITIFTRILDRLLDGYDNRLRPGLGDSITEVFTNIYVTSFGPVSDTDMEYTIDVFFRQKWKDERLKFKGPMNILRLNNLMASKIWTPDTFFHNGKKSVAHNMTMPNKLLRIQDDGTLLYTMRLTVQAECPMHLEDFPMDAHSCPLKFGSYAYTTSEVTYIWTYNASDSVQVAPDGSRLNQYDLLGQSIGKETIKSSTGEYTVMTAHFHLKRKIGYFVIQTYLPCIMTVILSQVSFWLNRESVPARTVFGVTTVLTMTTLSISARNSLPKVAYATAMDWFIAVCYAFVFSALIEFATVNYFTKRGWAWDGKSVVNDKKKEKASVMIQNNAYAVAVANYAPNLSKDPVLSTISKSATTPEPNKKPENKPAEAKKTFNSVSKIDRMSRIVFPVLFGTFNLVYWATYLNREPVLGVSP

**Q.** What does the source list for `CCOC(=O)c1cc2c(cn1)[nH]c1ccccc12`?
**A.** Ki [1]: > 1000 nM; Ki [2]: 26.8 nM; Ki [3]: 5.7 nM; Ki [4]: 4.9 nM
